Measured values reported in ChEMBL document CHEMBL5365518, “Synthesis and Validation of the First Cell-Impermeable Hsp90α-Selective Inhibitors” (ACS Med Chem Lett, 2023).

How the values were obtained:
Homo sapiens [1] = organism: Homo sapiens; test: Selectivity index, ratio of IC50 for binding affinity to Trap1 (unknown origin) to IC50 for binding affinity HSP90alpha (unknown origin)
Homo sapiens [2] = organism: Homo sapiens; test: Selectivity index, ratio of IC50 for binding affinity to Grp94 (unknown origin) to IC50 for binding affinity HSP90alpha (unknown origin)

| SMILES | Ratio IC50 (Homo sapiens [1]) | Ratio IC50 (Homo sapiens [2]) |
| --- | --- | --- |
| Cc1ccc(Sc2cc(C(=O)N3Cc4ccc(OCCN(C)C)cc4C3)ccc2O)cc1C | > 117 | > 117 |
| Cc1ccc(Sc2cc(C(=O)N3Cc4ccc(OCCCN(C)C)cc4C3)ccc2O)cc1C | > 196 | > 196 |
| Cc1ccc(Sc2cc(C(=O)N3Cc4ccc(OCCC[N+](C)(C)C)cc4C3)ccc2O)cc1C.O=C([O-])C(F)(F)F | > 294 | > 294 |
| Cc1ccc(Sc2cc(C(=O)N3Cc4ccc(OCC[N+](C)(C)C)cc4C3)ccc2O)cc1C.O=C([O-])C(F)(F)F | > 153 | > 153 |
